What was measured:
[1] = system: haloperidol-induced catalepsy; assay: animal or person; settings: Rattus norvegicus, read-out: Minimum effective dose (peroral administration)
[2] = molecular target: reuptake of dopamine in synaptosomes of rat forebrain (Rattus norvegicus, UniProt P23977); settings: relative to Win 35,428

The chains behind the UniProt entries cited, without tags or fusion partners.
UniProt P23977, whole entry: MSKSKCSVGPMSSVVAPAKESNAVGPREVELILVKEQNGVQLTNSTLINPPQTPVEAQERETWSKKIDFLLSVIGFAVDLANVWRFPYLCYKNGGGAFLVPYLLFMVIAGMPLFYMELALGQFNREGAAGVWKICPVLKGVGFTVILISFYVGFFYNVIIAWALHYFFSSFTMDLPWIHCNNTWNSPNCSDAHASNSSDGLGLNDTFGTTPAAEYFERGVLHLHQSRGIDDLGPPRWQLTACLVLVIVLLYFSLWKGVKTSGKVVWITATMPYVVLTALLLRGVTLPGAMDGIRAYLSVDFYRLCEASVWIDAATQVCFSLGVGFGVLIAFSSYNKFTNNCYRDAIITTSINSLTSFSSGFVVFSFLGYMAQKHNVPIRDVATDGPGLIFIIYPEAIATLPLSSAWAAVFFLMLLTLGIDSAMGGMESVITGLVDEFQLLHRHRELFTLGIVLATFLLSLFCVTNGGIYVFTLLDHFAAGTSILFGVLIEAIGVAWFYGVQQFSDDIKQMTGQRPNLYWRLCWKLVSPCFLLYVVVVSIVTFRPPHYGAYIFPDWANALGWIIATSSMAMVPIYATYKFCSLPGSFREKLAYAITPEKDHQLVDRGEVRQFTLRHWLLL

Structure (SMILES)	minimal effective dose [1] [mg/kg]	times less potent as compared to the cis isomer (Win 35,428) as a dopamine reuptake inhibitor [2] [times]
CN1[C@H]2CC[C@@H]1[C@H](c1nc(-c3ccccc3)no1)[C@@H](c1ccc(Cl)cc1)C2.Cl [(1R,2R,3S)-2-(3-Phenyl1,2,4-oxadiazol-5-yl)-3-(4-chlorophenyl)-tropane, hydrochloride]	0.25	–
CN1[C@H]2CC[C@@H]1[C@H](c1nc(-c3ccccc3)no1)[C@@H](c1ccc3ccccc3c1)C2.Cl [(1R,2R,3S)-2-(3-Phenyl-1,2,4-oxadiazol-5-yl)-3-(2-naphthyl)tropane, hydrochloride]	0.25	–
Cc1ccc([C@H]2C[C@@H]3CC[C@H]([C@@H]2c2nc(-c4ccccc4)no2)N3C)cc1.Cl [(1R,2R,3S)-2-(3-Phenyl-1,2,4-oxadiazol-5-yl)-3-(4-methylphenyl)-tropane, hydrochloride]	1	–
COC(=O)[C@@H]1[C@@H](c2ccc(F)cc2)C[C@@H]2CC[C@H]1N2C [trans isomer of Win 35,428, (1R,2R,3S)-2-carbomethoxy-3-(4-fluorophenyl)tropane]	–	~50

Reference: patent EP0604355B1, “Akyl Substituted heterocyclic compounds” (N[…]/S, priority 1992, dated 1994)
